Laboratory results from patent US6849664B2, “Process for disposing biocide-containing cooling water” (priority 2001, dated 2005).

System: bacterial inoculum
Assay type: cell-based
Experimental: Growth Media: A standard minimal media containing only inorganic nutrients required for bacterial growth was used. The medium used to supply inorganic micronutrients to the growing culture of alkane degrading organisms consists of 0.1 g/L MgSO4.7H2O, 0.5 g/L NaNO3, 0.02 mM FeSO4 and 0.63 g/L K2HPO4 and 0.19 g/L KH2PO4 to achieve a pH of 7 to 7.3.
Test Conditions: 90 ml of media and 10 ml of the product to be tested (n-C16) were added to 250 ml flasks. […] After inoculation, the flasks were placed on a shaker-table (135 rpm) at room temperature in contact with air and observed daily.
In all experiments, a 10:1 ratio of minimal media to Fischer-Tropsch diesel fuel were prepared and evaluated in 250 ml flasks.

NCCO [MEA, monoethanolamine]
Growth / No Growth (1 ppm MEA control without glutaraldehyde, time 0 days): −
Growth / No Growth (1 ppm MEA control without glutaraldehyde, time 1 days): −
Growth / No Growth (1 ppm MEA control without glutaraldehyde, time 2 days): −
Growth / No Growth (1 ppm MEA control without glutaraldehyde, time 3 days): +
Growth / No Growth (1 ppm MEA control without glutaraldehyde, time 7 days): +
Growth / No Growth (1 ppm MEA control without glutaraldehyde, time 9 days): +
Growth / No Growth (1 ppm MEA control without glutaraldehyde, time 14 days): +
Growth / No Growth (10 ppm MEA control without glutaraldehyde, time 0 days): −
Growth / No Growth (10 ppm MEA control without glutaraldehyde, time 1 days): −
Growth / No Growth (10 ppm MEA control without glutaraldehyde, time 2 days): −
Growth / No Growth (10 ppm MEA control without glutaraldehyde, time 3 days): +
Growth / No Growth (10 ppm MEA control without glutaraldehyde, time 7 days): +
Growth / No Growth (10 ppm MEA control without glutaraldehyde, time 9 days): +
Growth / No Growth (10 ppm MEA control without glutaraldehyde, time 14 days): +
Growth / No Growth (100 ppm MEA control without glutaraldehyde, time 0 days): −
Growth / No Growth (100 ppm MEA control without glutaraldehyde, time 1 days): −
Growth / No Growth (100 ppm MEA control without glutaraldehyde, time 2 days): −
Growth / No Growth (100 ppm MEA control without glutaraldehyde, time 3 days): −
Growth / No Growth (100 ppm MEA control without glutaraldehyde, time 7 days): −
Growth / No Growth (100 ppm MEA control without glutaraldehyde, time 9 days): −
Growth / No Growth (100 ppm MEA control without glutaraldehyde, time 14 days): +
Growth / No Growth (500 ppm MEA control without glutaraldehyde, time 0 days): −
Growth / No Growth (500 ppm MEA control without glutaraldehyde, time 1 days): −
Growth / No Growth (500 ppm MEA control without glutaraldehyde, time 2 days): −
Growth / No Growth (500 ppm MEA control without glutaraldehyde, time 3 days): −
Growth / No Growth (500 ppm MEA control without glutaraldehyde, time 7 days): −
Growth / No Growth (500 ppm MEA control without glutaraldehyde, time 9 days): −
Growth / No Growth (500 ppm MEA control without glutaraldehyde, time 14 days): +

Where two headings read alike, the source gives them in different places.
